# Apparent affinities of Ab-14 variants for a coronavirus HR2 peptide

Values reported by Li et al. 2023, doi:10.1038/s41467-023-39022-2 (FLAb copy).

The target is the same throughout: PDVDLGDISGINAS, from the HR2 region of SARS-CoV-2 spike.

Parent scFv Ab-14: VH joined to VL by a 15-residue (Gly4Ser)3 linker. Changes lie in the heavy chain CDRs alone.
VH: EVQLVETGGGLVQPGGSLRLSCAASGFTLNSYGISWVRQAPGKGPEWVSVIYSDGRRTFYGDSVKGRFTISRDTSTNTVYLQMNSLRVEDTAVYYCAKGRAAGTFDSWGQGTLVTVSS
VL: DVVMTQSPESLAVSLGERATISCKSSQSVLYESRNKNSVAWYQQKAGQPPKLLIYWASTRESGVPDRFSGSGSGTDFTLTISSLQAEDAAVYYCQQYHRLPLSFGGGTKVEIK

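The starting antibody came from a phage panning campaign against this peptide. This is the validation round: designs drawn from the data on random variants, tested in the same kind of assay. Group labels follow the data file (En: ensemble of fine-tuned language models; HC: hill climbing; Gen: genetic algorithm; Gibbs: Gibbs sampling; a sequence that several methods proposed may carry one label only). AlphaSeq pools MATa yeast showing the antibodies with MATalpha yeast showing the peptide. Mating (16 h, 30 °C) was followed by selection of diploids and sequencing of their barcodes. Read counts were normalised to the haploid input and turned into Kd by a linear fit to BCL2-family pairs of known affinity, for each replicate. Mating was done six times.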

The parent's heavy chain CDRs are GFTLNSYGIS, VIYSDGRRTFYGDSVK, GRAAGTFDS; each variant's own CDRs replace them letter for letter. This list holds designs with more than six substitutions. Each Kd is an estimate from the mating assay, the geometric mean of the replicates in which the pair was seen; lower is stronger. An entry "nd" has no value in the source: the pair was not observed among the diploids in any replicate. This suggests poor binding but is not conclusive. Background: pairings of all heavy chain designs with three empty control strains gave a value in 1% of cases (median 120 nM, 5th percentile 7.0 nM). Values in that range, when seen in few replicates, are hard to tell from nonspecific mating. Also given: how often the same scFv was detected with the empty control strains. The authors' rule: three or more of the six replicates give a measured affinity, fewer mean a poor binder. The range of this assay differs from that of the first round, and the authors advise against merging the two.

The variant GFDLNEYGIS / VIYADGRRTAYADSVK / GANAGTFDQ [En_HC] gave 87 pM (6 of 6 replicates; controls 0 of 18). The variant GFNINEYGIS / VIYADGKRTAYSESVK / GNSAGTMNH [En_Gibbs] gave nd (0 of 6 replicates; controls 0 of 18). The variant GFDLNEYGIS / VIYADGKRTAYSDSVK / GTNAGTFDI [En_Gen] showed 94 pM (5 of 6 replicates; controls 0 of 18). With GFDLNEYGIS / VIYADGRRTFYDDSVK / GKNAGTFDQ [En_HC] the result was 530 pM (6 of 6 replicates; controls 0 of 18). With GFDLNEYGIS / VIYADGVRTVYADSVK / GEVAGTFDV [En_Gen] the result was 470 pM (6 of 6 replicates; controls 3 of 18). For GFDLDEYGIS / VIYADGMRTAYSDSVK / GNEAGTFDV [En_Gen], the assay gave 630 pM (6 of 6 replicates; controls 1 of 18). For GFDIDEYGIS / VIYADGQRKAYTDNVK / GRSGGMTVA [En_Gibbs], the assay gave 250 nM (2 of 6 replicates; controls 2 of 18). With GFDINEYGIS / VIYADGRRTFYTDSVK / GGNAGTFDE [En_HC] the result was 2.3 nM (6 of 6 replicates; controls 0 of 18). The variant GFNLDEYGIS / VIYADGRRTAYKDTVK / GSRTFEFDL [En_Gibbs] showed nd (0 of 6 replicates; controls 0 of 18).

With GFDLNEYGIS / VIYADGMRTFYADSVK / GNTAGTFDQ [En_Gen] the result was 200 pM (6 of 6 replicates; controls 1 of 18). The variant GFDLDEYGVS / VIYADGMRSKYADSVK / GTTGGTIEA [En_Gibbs] showed 1.6 µM (1 of 6 replicates; controls 0 of 18). The variant GFDLMEYGIS / VIYADGQRQVYQDNVK / GGDAVLNIV [En_Gibbs] gave nd (0 of 6 replicates; controls 0 of 18). The variant GFDLNEYGIS / VIYADGKRTFYADSVK / GNTAGTFDS [En_HC] gave 2.3 nM (6 of 6 replicates; controls 0 of 18). For GFDLNEYGIS / VIYADGQRTFYADSVK / GNTAGTFDS [En_HC], the assay gave 120 pM (6 of 6 replicates; controls 0 of 18). The variant GFDLNEYGIS / VIYADGVRTAYSDSVK / GNTAGTFDQ [En_Gen] gave 540 pM (6 of 6 replicates; controls 0 of 18). The variant GFDLDSYGIS / VIYADGRRSAYHDSVK / GTNGSVSFV [En_Gibbs] showed 190 nM (2 of 6 replicates; controls 0 of 18). With GFDLDEYGIS / VIYADGKRTAYADSVK / GGNAGTFDI [En_Gen] the result was 520 pM (6 of 6 replicates; controls 1 of 18). For GFDLDEYGIS / VIYADGIRQYAQDNVK / GLLGGMTIT [En_Gibbs], the assay gave nd (0 of 6 replicates; controls 0 of 18).

With GFDIQEYGIS / VIYADGLRSMVTNSVK / GESGVMVLV [En_Gibbs] the result was nd (0 of 6 replicates; controls 1 of 18). The variant GFDLNEYGIS / VIYADGKRTAYADKVK / GENAGTFDV [En_Gen] showed 420 pM (6 of 6 replicates; controls 0 of 18). For GFDLQEYGIS / VIYADGHRTAYTNKVK / GGESMISVT [En_Gibbs], the assay gave nd (0 of 6 replicates; controls 0 of 18). The variant GFSIDEYGIS / VIYADGVRQAYQDDVK / GQIGGTFNY [En_Gibbs] showed 560 pM (6 of 6 replicates; controls 1 of 18). With GFDLNEYGIS / VIYADGMRTFYTDSVK / GEVAGTFDM [En_HC] the result was 500 pM (6 of 6 replicates; controls 1 of 18). The variant GFNLNEYGIS / VIYADGRRTFYADSVK / GEIAGTFIV [En_HC] showed 2.0 nM (6 of 6 replicates; controls 1 of 18). For GYSLNEFGIS / VIYADGLRVAYADDVK / GNIAGHFLS [En_Gibbs], the assay gave nd (0 of 6 replicates; controls 0 of 18). For GFKIDEYGIS / VIYADGIRRQYADNVK / GYTDDAFDM [En_Gibbs], the assay gave 1.1 µM (1 of 6 replicates; controls 4 of 18). For GFDLNEYGIS / VIYADGRRTFYADSVK / GEIAGTFDE [En_HC], the assay gave 280 pM (6 of 6 replicates; controls 0 of 18).

The variant GFDLDEYGIS / VIYADGMRKAYADSVK / GNVAGTFDI [En_Gen] gave 290 pM (6 of 6 replicates; controls 0 of 18). The variant GFDLNEYGIS / VIYADGQRKAYADSVK / GNNAGTFDV [En_Gen] gave 78 pM (6 of 6 replicates; controls 0 of 18). With GFDLDEYGIS / VIYADGQRTFYIDSVK / GETAGTFDS [En_HC] the result was 660 pM (5 of 6 replicates; controls 0 of 18). The variant GFDLNEYGIS / VIYADGRRTFYADSVK / GNNAGTFDQ [En_HC] gave 350 pM (6 of 6 replicates; controls 0 of 18). For GKSLDEYGIS / VIYADGLRSVYANSVK / GQFTDTLDL [En_Gibbs], the assay gave nd (0 of 6 replicates; controls 0 of 18). With GFSINEYGIS / VIYADGTRTAYADDVK / GAYDTVAVL [En_Gibbs] the result was nd (0 of 6 replicates; controls 1 of 18). The variant GFDLNEYGIS / VIYADGKRTAYVDSVK / GGNAGTFDV [En_Gen] showed 340 pM (6 of 6 replicates; controls 0 of 18). The variant GFDLDEYGIS / VIYADGRRTYYQDSVK / GQAAGTFDQ [En_HC] showed 230 pM (6 of 6 replicates; controls 0 of 18). With GFDLNEYGIS / VIYADGMRTAYADNVK / GQVAGTFDM [En_Gen] the result was 380 pM (6 of 6 replicates; controls 0 of 18).

For GFDLDEYGIS / VIYADGMRTAYANSVK / GEVAGTFDL [En_Gen], the assay gave 1.2 nM (6 of 6 replicates; controls 0 of 18). For GFDLNEYGIS / VIYADGRRTFYADSVK / GQLAGTFDD [En_HC], the assay gave 270 pM (6 of 6 replicates; controls 0 of 18). The variant GFDLNEYGIS / VIYADGRRTFYTDSVK / GEQAGIFDV [En_HC] gave 960 pM (6 of 6 replicates; controls 4 of 18). With GFDLNEYGIS / VIYADGRRTFYSDSVK / GTVAGTFDV [En_HC] the result was 320 pM (6 of 6 replicates; controls 2 of 18). With GFDLNEYGIS / VIYADGIRTAYSDQVK / DRDGIVILF [En_Gibbs] the result was 7.4 nM (6 of 6 replicates; controls 0 of 18). With GFDLDEYGIS / VIYADGKRTFYSDSVK / GENAGTFDV [En_Gen] the result was 580 pM (6 of 6 replicates; controls 0 of 18).